Assay outcomes deposited in PubChem BioAssay by Broad Institute.
The list is not random: actives were taken first. Their share in the collection is about 1.5%.
RAD52 anneal inh = RAD52 DNA annealing inhibitors, primary screen, biochemical, FRET, single point, set 2. AID 651710, 2012. 0.46% of 360,000 active. DNA repair protein RAD52 homolog (Homo sapiens), P43351. inhibition, % at 18.7 µM. recombinant RAD52 DNA annealing, FRET fluorescence;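 active means every replicate showing at least 50% inhibition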
Yeast UUG start = yeast start codon fidelity modulation | S. cerevisiae UUG-firefly luciferase reporter, luminescence/redox ratio | activity score, % at 18.7 µM | 0.13% of 350,000 active | AID 602363;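 active means replicate mean at a twofold rise or more, about +100% in these data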;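 further: firefly luciferase made from a UUG start codon reports start codon fidelity; reporter light over untreated wells divided by growth signal over untreated wells; some hits fall short of that in this replicate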
RAD54 inh = inhibitors of human RAD54 branch migration, primary screen, biochemical, fluorescence, single point. 0.14% of 360,000 active. inhibition, % at 10.4 µM. RAD54 Holliday junction branch migration, FAM/BHQ fluorescence;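 active means mean normalized replicate activity at least 40 and at least half of replicates scoring 40 or more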;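 further: inhibitors cause a drop in the FAM fluorescence signal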
Casp6 inh = human caspase-6 inhibitors, primary screen, biochemical, VEID-R110 fluorescence, single point, set 2; 0.53% of 350,000 active; purified caspase-6, Z-VEID-R110 cleavage fluorescence; inhibition, % at 12.5 µM;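 active means mean inhibition across replicates at least about 35%, with every replicate also reaching that limit, limit read from the data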
PglD DTNB = C. jejuni PglD acetyltransferase inhibitors, primary screen, biochemical, DTNB colorimetric, single point; purified PglD enzyme, DTNB colorimetric CoA detection; inhibition, % at 12.5 µM; 0.098% of 360,000 active; in the data active means inhibition above about 16%, passing the limit was not always enough
INS-1E GSIS act = GLuc luminescence reporter in INS-1E cells, primary screen for activators of glucose-dependent secretion of insulin; INS-1E GLuc reporter insulin secretion, 2-3 h; activation, % at 16.6 µM; 0.61% of 370,000 active;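 active means lowest replicate activation of at least 40%, so every replicate reaches that level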
Hits are given with their value; - = inactive; . = no result.

SMILES	RAD52 anneal inh	Yeast UUG start	RAD54 inh	Casp6 inh	PglD DTNB	INS-1E GSIS act
O=C(O)CN1C(=O)/C(=C\c2cc([N+](=O)[O-])ccc2OCc2ccccc2Cl)SC1=S	-	-	-	35.6	-	-
COc1ccc(/C=C2/SC(=S)N(CC(=O)O)C2=O)cc1OCc1ccc(Cl)cc1	-	-	-	-	-	-
C[C@@H]1CN([C@@H](C)CO)S(=O)(=O)c2ccc(C#CCN(C)C)cc2O[C@H]1CN(C)Cc1ccccn1	-	-	-	-	-	-
COC(=O)c1ccc(/C=C2\N=C(SC)SC2=O)cc1	.	.	.	.	.	-
COc1ccccc1C(=O)Nc1nnc(S(=O)(=O)N2CCCCC2)s1	-	-	-	-	-	-
Cc1nc(C)c(-c2ccc(SCC(=O)Nc3ccc(C)c(Cl)c3)nn2)s1	-	-	-	-	-	40.6
COc1ccc(NC(=O)CSc2ccc(-c3sc(C)nc3C)nn2)cc1OC	-	-	-	-	-	-
Cc1ccccc1CN(C)Cc1cc(=O)oc2c(C)c(C)ccc12	-	-	-	-	-	92.8
COc1cccc(CN(C)Cc2cc(=O)oc3c(C)c(C)ccc23)c1	-	-	-	-	-	-
Nc1ccc(C(=O)Nc2ccc3c(O)cc(S(=O)(=O)O)cc3c2)cc1	-	-	-	83.6	-	-
C[C@H](CO)N1C[C@H](C)[C@H](CN(C)C(=O)NC2CCCCC2)Oc2ccc(NC(=O)Nc3ccc(F)cc3)cc2C1=O	-	-	-	-	-	-
C=CCNc1nc(NCc2ccco2)nc(OCC)n1	.	-	-	.	-	58.1
C=CCNc1nc(Cl)nc(NCc2ccco2)n1	-	-	-	-	-	-
O=C(CCCCCN1C(=O)c2cccc3cccc(c23)C1=O)N1CCOCC1	.	-	-	.	-	-
Oc1c(N=Nc2nn[nH]n2)ccc2ccccc12	-	.	.	93.8	.	-
O=C(COc1ccc2ccc(=O)oc2c1)Nc1ccc(N2CCOCC2)cc1	.	.	.	.	.	-
O=c1c(C(c2c(O)nc3n(c2=O)CCS3)c2cccc3ccccc23)c(O)nc2n1CCS2	.	-	54.5	.	-	.
COc1ccc(CNC(=O)CN(C(=O)c2snc(C(N)=O)c2N)c2cccc(F)c2)cc1	-	-	-	-	-	-
CNC[C@H]1Oc2cc(C#CCC3CCCC3)ccc2S(=O)(=O)N([C@H](C)CO)C[C@@H]1C	-	-	-	-	-	-
COc1ccc2c(c1)c(=O)oc1c(C)c(OCc3cc(C(=O)O)oc3C)ccc12	-	-	-	50.7	-	-
COc1ccc2c(c1)c(=O)oc1c(C)c(OCc3ccc(C(=O)O)cc3)ccc12	-	-	-	-	-	-
COc1ccc(NC(=S)N(CCN2CCOCC2)Cc2cc3cc4c(cc3[nH]c2=O)OCCO4)cc1	-	-	-	38.2	-	-
N/C(=N/O)c1nc(N2CCCC2)nc(N2CCCC2)n1	-	-	-	-	-	76.5
CC(=O)C1=C(O)C(=O)N(c2ccc(O)cc2)C1c1ccccc1F (configuration not stated)	-	-	-	-	-	-
O=C1c2ccccc2[C@@H]2C[C@@H](O)[C@H](Nc3cccc4ccccc34)CCN12	-	-	-	38.6	-	-
SMILES	RAD52 anneal inh	Yeast UUG start	RAD54 inh	Casp6 inh	PglD DTNB	INS-1E GSIS act
O=C(CCOc1ccccc1)N1CCN(S(=O)(=O)c2ccccc2F)CC1	-	-	-	48.2	-	-
O=C(CCOc1ccccc1)N1CCN(S(=O)(=O)c2cccs2)CC1	.	-	-	.	-	-
CCCC#Cc1ccc2c(c1)O[C@@H](CN(C)C(=O)c1ccncc1)[C@H](C)CN([C@H](C)CO)S2(=O)=O	-	-	-	-	-	-
O=C(Nc1nc2ccccc2[nH]1)c1ccccc1O	-	.	.	-	.	-
Cc1ccc(C)c(C(=O)Nc2nc3ccccc3[nH]2)c1	-	-	-	-	-	45.2
CSc1nc2ccc(NC(=O)CSc3nnc(N)s3)cc2s1	-	.	.	-	.	-
COc1cccc(-c2c[nH]c(=O)[nH]c2=O)c1	-	-	-	-	-	-
Cc1ccc(NC(=S)Nc2cccc3cnccc23)cc1	-	-	-	80.3	-	-
Fc1ccccc1NC(=S)Nc1cccc2cnccc12	-	.	.	-	.	-
Cc1ccc(NC(=S)Nc2cccc3cnccc23)cc1C	-	-	-	-	-	-
FC(F)(F)c1ccccc1NC(=S)Nc1cccc2cnccc12	-	.	.	36.6	.	-
COc1cc(OC)cc(C(=O)N2CCN(c3ccccn3)CC2)c1	-	-	-	-	-	-
O=[N+]([O-])c1cc(O)c2ncccc2c1	-	.	.	46.9	.	-
COC(=O)c1ccc(COc2cc([N+](=O)[O-])cc3cccnc23)o1	-	.	.	37.6	.	-
C[C@H]1CN([C@@H](C)CO)C(=O)Cc2cc(NS(=O)(=O)c3ccccc3)ccc2O[C@@H]1CN(C)S(C)(=O)=O	-	-	-	-	-	-
O=C1C(=Cc2ccco2)CCC1=Cc1ccco1	-	-	-	88.1	-	-
O=C1C(=Cc2ccco2)CCCC1=Cc1ccco1	-	-	-	71.6	-	-
O/N=C1\CCC\C1=C/c1ccco1	.	-	-	.	-	.
Cc1ncc(N=Nc2ccc(F)cc2)c(-c2ccc(Cl)cc2)n1	.	-	-	.	-	59.4
Cc1ccc(NC(=O)Cn2cnc3c(NCc4ccccc4)ncnc32)cc1C	-	-	-	-	-	-
O=C(Nc1ccnn1C1CCN(C2CCC2)CC1)c1ccccc1Cl	-	-	-	-	-	64.5
O=C(Nc1ccnn1C1CCN(C2CCCC2)CC1)c1ccccc1Cl	-	-	-	-	-	-
Cc1cc(OCC(O)CNC(C)c2ccccc2)ccc1C(C)C (configuration not stated)	-	-	-	-	-	379.3
COC(=O)c1ccc2c(=O)[nH]c(CSc3nc(C)cs3)nc2c1	-	-	-	-	-	-
COC(=O)c1ccc2c(=O)[nH]c(CSc3nc(-c4ccc(F)cc4)cs3)nc2c1	.	.	.	.	.	57.9
SMILES	RAD52 anneal inh	Yeast UUG start	RAD54 inh	Casp6 inh	PglD DTNB	INS-1E GSIS act
COc1cccc(NC(=O)CN(C)C(=O)Cn2[nH]c(=O)c3ccccc3c2=O)c1	-	-	-	-	-	41.5
COc1ccc(Cl)cc1NC(=O)CN(C)C(=O)Cn1[nH]c(=O)c2ccccc2c1=O	-	-	-	-	-	-
CN(c1ncnc(N)c1[N+](=O)[O-])C1CCS(=O)(=O)C1 (configuration not stated)	-	-	-	-	-	-
Nc1ncnc(NC2CCS(=O)(=O)C2)c1[N+](=O)[O-] (configuration not stated)	-	-	.	-	-	64.7
CCc1ccc(-c2c(C)sc(NC(=O)C3CCC3)c2C#N)cc1	.	-	-	.	-	139.2
O=C1Cc2ccccc2C(=O)N1Cc1cccc(Cl)c1	-	-	-	67.8	-	-
